Measured values taken from paper PMC7365253 (Journal of the American Chemical Society, 2020).

The chains behind the UniProt entries cited, without tags or fusion partners. Residues count along the entry.
UniProt P00813, 2-363: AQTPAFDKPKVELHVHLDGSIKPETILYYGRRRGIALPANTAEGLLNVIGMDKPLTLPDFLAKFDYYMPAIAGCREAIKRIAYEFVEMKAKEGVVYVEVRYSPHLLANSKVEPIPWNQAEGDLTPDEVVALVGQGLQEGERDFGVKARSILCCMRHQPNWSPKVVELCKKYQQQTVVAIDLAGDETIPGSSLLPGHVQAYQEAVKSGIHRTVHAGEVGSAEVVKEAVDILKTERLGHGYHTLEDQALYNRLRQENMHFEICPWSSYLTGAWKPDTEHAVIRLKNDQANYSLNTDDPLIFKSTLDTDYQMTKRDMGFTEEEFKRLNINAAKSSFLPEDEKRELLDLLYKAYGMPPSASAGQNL

Target: adenosine deaminase (ADA) (Homo sapiens, UniProt P00813)

Nc1nc(Cl)nc2c1ncn2[C@H]1C[C@H](O)[C@@H](CO)O1 [Cladribine]
recombinant ADA enzymatic activity assay, 10 μM: a result similarly observed for treatment of the active-site inhibitor Cladribine during the assay (Figure 6D)
